scFv variants of Ab-95 (light chain) against a SARS-CoV-2 spike peptide

Source: Engelhart et al. 2022 (doi:10.1038/s41597-022-01779-4), MIT Lincoln Laboratory and A-Alpha Bio; data file from the FLAb repository.

All variants were tested on one target, the spike HR2 peptide PDVDLGDISGINAS (SARS-CoV-2).

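The starting antibody came from a phage panning campaign against this peptide. Variants in AAYL52 differ from the parent at up to three CDR positions; double and triple changes were sampled at random. The assay is AlphaSeq: two haploid yeast populations carry antibody and antigen on their surface. Binding brings cells together so that they mate, and sequencing counts the barcode pairs among the diploids. A regression on co-assayed BCL2-family reference pairs converts the normalised counts of each replicate to an apparent Kd. Each pool was mated in three replicate cultures.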

Parent scFv Ab-95: VH joined to VL by a (GGGGS)3 linker. Changes lie in the light chain CDRs alone.
VH: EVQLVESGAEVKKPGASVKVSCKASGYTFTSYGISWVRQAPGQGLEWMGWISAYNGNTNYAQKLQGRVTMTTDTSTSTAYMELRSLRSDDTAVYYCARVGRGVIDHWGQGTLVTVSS
VL: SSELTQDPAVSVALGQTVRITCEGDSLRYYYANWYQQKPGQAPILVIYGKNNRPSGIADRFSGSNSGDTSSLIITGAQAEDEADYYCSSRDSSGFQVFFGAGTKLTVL

Each variant is given by its three light chain CDRs, as the data file delimits them; those of the parent are EGDSLRYYYAN, GKNNRPS, SSRDSSGFQVF. Kd is apparent (estimated from mating counts) and averaged on the log scale over replicates with a signal. Smaller is tighter. A pair that was not seen in any replicate is written "not detected"; this usually means weak binding, but a binder can also be missed.

CDR-L1	CDR-L2	CDR-L3	Kd	seen in	signal with controls
EGDSLRYYYAE	GKNNNPS	SSRDSLGFQVF	not detected	0 of 3	1 of 9
EGDSLRYYTAN	GKNNRPS	SSRDSSGMQIF	270 nM	3 of 3	3 of 9
EGDSLRYYYSN	GKNNRPS	WSRDSSGFLVF	1.5 µM	3 of 3	3 of 9
EGDRLRYYYAN	GKNNRES	SSRDESGFQVF	6.5 µM	2 of 3	2 of 9
EGDSLRYYYAN	GKNNSPA	GSRDSSGFQVF	8.3 µM	3 of 3	3 of 9
TGDSLRYYYAN	GKNERPS	SSRDSSFFQVF	250 nM	3 of 3	2 of 9
EGDSLRYYYAN	GKNNRPS	SSRDSDPFQVF	170 nM	3 of 3	2 of 9
SGPSLRYYYAN	GKNNRPS	SYRDSSGFQVF	530 nM	3 of 3	2 of 9
EGDSLRPYYAN	GKNNRYS	SSRDSRGFQVF	11 µM	3 of 3	4 of 9
EGDSLRYYYCN	GKNNRPS	SSRDSRGYQVF	920 nM	2 of 3	1 of 9
EGDYLRPYYAN	GKNNRPS	SSRISSGFQVF	20 nM	3 of 3	5 of 9
EGDSLRLYYAN	GKNNRPS	SSHDSSGFQYF	not detected	0 of 3	1 of 9
EGDSLRYYYDN	GWNNRPS	SDRDSSGFQVF	not detected	0 of 3	2 of 9
EGDSLRYYYAN	GKNNRFL	SYRDSSGFQVF	10 µM	1 of 3	1 of 9
EGDSLRYYWAN	GKNNRPS	SSRHSSHFQVF	810 nM	3 of 3	0 of 9
EGDSWRYYYAN	GKNNRPS	SSRDSSGFQLF	35 µM	2 of 3	6 of 9
EGDSLRYYYAN	GKNNRSI	SSRDSSGFQVV	1.0 µM	3 of 3	2 of 9
EGDSLRYYYYN	GKNSRPS	SSRVSSGFQVF	60 µM	2 of 3	4 of 9
EDDSLRYYYAN	GKNNRPQ	SSRDASGFQVF	1.7 µM	2 of 3	1 of 9
EGDSLRNLYAN	GYNNRPS	SSRDSSGFQVF	180 nM	3 of 3	0 of 9
EGDSLRYYYAN	GKVNRPM	SSFDSSGFQVF	13 µM	1 of 3	4 of 9
EGDSWRYYYAN	GKNNRPS	SSRNSSGSQVF	200 µM	1 of 3	2 of 9
EGDSLRYIYAN	GKNNLPS	SSRDSSEFQVF	not detected	0 of 3	0 of 9
EVDSLRYQYAN	GKNNRPS	SHRDSSGFQVF	350 nM	3 of 3	2 of 9
ENDSLRYYYAN	GKNNKPS	SSRDSAGFQVF	9.3 µM	1 of 3	1 of 9
EGDSTRYGYAN	GKNNRPS	SSRDSSGVQVF	2.9 µM	3 of 3	2 of 9
EGDSVRYYYAN	GKNNRPS	STRDSSGWQVF	360 nM	3 of 3	0 of 9
EGDSFRYYYAN	GKNNRPS	SSRDSSNFQVF	3.6 µM	3 of 3	3 of 9
EGDSLRYCYAS	LKNNRPS	SSRDSSGFQVF	560 µM	2 of 3	3 of 9
EGDSLRYYYPN	GKNNRPS	SSKDSSGFQVF	260 nM	3 of 3	1 of 9
EGDSLRYYYAN	GKNRRPS	SSRDSSGFWPF	1.9 µM	3 of 3	5 of 9
EGDLLRYYYAN	GKNNYPS	SSRDSSGFQVY	25 µM	1 of 3	5 of 9
EGDSLRYYYAN	GQNNRPS	SSGDSFGFQVF	23 µM	1 of 3	4 of 9
EGDSLRYYYYN	GANNRPS	SSRDSSGFQVF	not detected	0 of 3	0 of 9
EGDQLRYYYAN	GKNNRPS	YSRDSSGYQVF	74 µM	1 of 3	1 of 9
EGESLRYYYAN	GKNNRYS	SSRDSSGFQVN	not detected	0 of 3	0 of 9
ECDSLRWYYAN	GKSNRPS	SSRDSSGFQVF	840 nM	1 of 3	0 of 9
EDDSLRYYYAN	GKNNRPS	MSQDSSGFQVF	94 nM	3 of 3	0 of 9
EGDSLLYYYAN	GKNNRPS	SCRDSSGFQVG	190 nM	3 of 3	6 of 9
EGDSLRWYYAN	GKNNRPS	SSRYASGFQVF	2.5 µM	1 of 3	2 of 9
HGDSLEYYYAN	GKNNRPS	SSRDSSGFQVF	110 nM	3 of 3	3 of 9
WGDSLRYYYLN	GKNNRPS	SSRDSSGFQVP	34 µM	1 of 3	0 of 9
EGDSLRYYNAN	GKNNQPS	SSRDSSGFQAF	140 nM	3 of 3	4 of 9
EGDSLRYYYAQ	GKNNRPS	SSRDFSGFQVF	not detected	0 of 3	1 of 9
EGQSLRYYYAN	GKNNRPS	SSRDGWGFQVF	160 nM	3 of 3	2 of 9
EGDSLRYYYAN	GKNNRPS	SRRDSYQFQVF	20 µM	3 of 3	4 of 9
EGDSIRYYYAN	GKNNRKF	SSRDSSGFQVF	64 µM	1 of 3	6 of 9
EGDSLRYYYAN	GKNNRPS	SSRNSSYFPVF	1.1 µM	2 of 3	0 of 9
HGDSLRYYYAN	GDNNRPS	SSRDSSGFEVF	51 nM	3 of 3	2 of 9
EGQSLRYYYAN	GKNNRPS	SSRDQSGFQVN	430 nM	3 of 3	1 of 9
EGDSLRLYYAQ	GRNNRPS	SSRDSSGFQVF	not detected	0 of 3	3 of 9
EGDSLRYYYAN	GSNNRPS	SIKDSSGFQVF	1.9 µM	3 of 3	2 of 9
EGDSLRYYYAN	GFNNRPS	SSRNSSGFQSF	not detected	0 of 3	1 of 9
EGDSLRYHYAN	GANNRPS	SSRDYSGFQVF	11 nM	3 of 3	6 of 9
EGDPLRYYYAN	GKNIRPS	RSRDSSGFQVF	not detected	0 of 3	0 of 9
EGDSDRYYYAN	GKNNRSS	SSRDSSGFVVF	34 µM	3 of 3	2 of 9
EGDSLRYYYAN	GKNNSQS	SWRDSSGFQVF	3.2 µM	3 of 3	6 of 9
EGDSLRYYYAG	GKNNRPS	SSGDSSGFTVF	not detected	0 of 3	2 of 9
EGDSLRYYYAN	GKNNRPS	SHRDKSGFQVF	3.2 µM	2 of 3	6 of 9
EGDSLRYYIAN	GQNNRPS	SSRDSSGFQNF	1.4 µM	3 of 3	1 of 9
EGDSLRYYYAN	GKNGRPS	SSADSSGFQVF	520 nM	3 of 3	4 of 9
EGDSLRYWYAN	GKNNTPS	SSRDSSGFVVF	not detected	0 of 3	3 of 9
EGDSLRFYYAN	GKNNRPS	SNRDSSFFQVF	910 nM	3 of 3	0 of 9
EGDSLRIYYRN	GINNRPS	SSRDSSGFQVF	90 µM	3 of 3	3 of 9
EGDSLFYYYAN	DKNNRPS	SSRDSSGFQVL	2.5 µM	3 of 3	5 of 9
EGDSLRYYYYN	GKNNRPS	SKRDSSGFQVF	not detected	0 of 3	0 of 9
EGDSLGYYYAN	GKNNRAS	QSRDSSGFQVF	620 nM	3 of 3	3 of 9

A selection of 5 entries from above:

| CDR-L1 | CDR-L2 | CDR-L3 | Kd | seen in | signal with controls |
|---|---|---|---|---|---|
| EGDSWRYYYAN | GKNNRPS | SSRNSSGSQVF | 200 µM | 1 of 3 | 2 of 9 |
| HGDSLEYYYAN | GKNNRPS | SSRDSSGFQVF | 110 nM | 3 of 3 | 3 of 9 |
| WGDSLRYYYLN | GKNNRPS | SSRDSSGFQVP | 34 µM | 1 of 3 | 0 of 9 |
| EGDSLRFYYAN | GKNNRPS | SNRDSSFFQVF | 910 nM | 3 of 3 | 0 of 9 |
| EGDSLRYYYYN | GANNRPS | SSRDSSGFQVF | not detected | 0 of 3 | 0 of 9 |

Empty control strains, which show no peptide, gave a signal in 28% of pairings with library AAYL52; the median was 8.2 µM and 95% of these signals were weaker than 800 nM. No background was subtracted. For each scFv, signals with the empty controls are counted beside the result.